The values that follow are results of earlier work, collected in publication PMC11938273 (Journal of Chemical Information and Modeling, 2025).

For this series the following is noted: in vivo; cited from earlier work.

Regarding “rac-(4R,4aS,6R,7R,7aR,12bS)-3-(cyclopropylmethyl)-6-((S)-2-hydroxy-3,3-dimethylbutan-2-yl)-7-methoxy-1,2,3,4,5,6,7,7a-octahydro-4a,7-ethano-4,12-methanobenzofuro[3,2-e]isoquinolin-9-ol [Buprenorphine]”, the CNS status entry is reported as “Positive”. “(R)-2-fluoroethyl 1-(1-phenylethyl)-1H-imidazole-5-carboxylate [Fluoroethyl Etomidate (FETO)]”: the CNS status result is recorded as “Positive”.
